# Laboratory results: patent publication US8778951B2, “Heteroaryl compounds and their uses” (Novartis AG, priority 2009, dated 2014)
# By UniProt entry, the sequences of proteins in these tests, tags left out.
# UniProt P50750, whole entry: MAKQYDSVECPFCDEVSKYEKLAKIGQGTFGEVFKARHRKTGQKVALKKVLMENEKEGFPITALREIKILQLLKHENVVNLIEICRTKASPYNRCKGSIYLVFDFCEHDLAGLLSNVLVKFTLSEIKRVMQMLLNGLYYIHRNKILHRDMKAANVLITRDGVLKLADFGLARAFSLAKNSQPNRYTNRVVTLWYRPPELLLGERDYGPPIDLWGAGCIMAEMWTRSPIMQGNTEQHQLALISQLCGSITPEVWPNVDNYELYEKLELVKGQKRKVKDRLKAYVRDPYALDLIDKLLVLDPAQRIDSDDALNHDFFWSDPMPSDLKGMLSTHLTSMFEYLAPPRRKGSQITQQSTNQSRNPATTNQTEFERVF
# Molecular target: Cdk9/cyclinT1 (Homo sapiens (Human), UniProt P50750)
# Test: Cdk9/CyclinT1 IMAP Protocol (fluorescence polarization kinase assay)
# Assay type: biochemical
# Details: Table 2; generated using one of the two Cdk9/cyclinT1 assays (IMAP or Alpha Screen), not specified which; unit inferred
# Experimental: Cdk9/CyclinT1 IMAP Protocol
# The biological activity of the compounds of the invention can be determined using the assay described below.
# Cdk9/cyclinT1 is purchased from Millipore, cat #14-685. The final total protein concentration in the assay 4 nM. […] The final concentration of peptide substrate is 100 nM. The ATP substrate (Adenosine-5′-triphosphate) is purchased from Roche Diagnostics, cat#1140965. The final concentration of ATP substrate is 6 uM. IMAP (Immobilized Metal Assay for Phosphochemicals) Progressive Binding reagent is purchased from Molecular Devices, cat#R8139. Fluorescence polarization (FP) is used for detection. The 5TAMRA-cdk7tide peptide is phosphorylated by Cdk9/cyclinT1 kinase using the ATP substrate. The Phospho-5TAMRA-cdk7tide peptide substrate is bound to the IMAP Progressive Binding Reagent. The binding of the IMAP Progressive Binding Reagent changes the fluorescence polarization of the 5TAMRA-cdk7tide peptide which is measured at an excitation of 531 nm and FP emission of 595 nm. Assays are carried out in 100 mM Tris, pH=7.2, mM MgCl2, 0.05% NaN3, 0.01% Tween-20, 1 mM dithiothreitol and 2.5% dimethyl sulfoxide. IMAP Progressive Binding Reagent is diluted 1:800 in 100% 1× Solution A from Molecular Devices, cat#R7285.
# General protocol is as follows: To 10 ul of cdk9/cyclinT1, 0.5 ul of test compound in dimethyl sulfoxide is added. 5TAMRA-cdk7tide and ATP are mixed. 10 ul of the 5TAMRA-cdk7tide/ATP mix is added to start the reaction. The reaction is allowed to proceed for 4.5 hrs. 60 uL of IMAP Progressive Binding Reagent is added. After >1 hr of incubation, plates are read on the Envision 2101 from Perkin-Elmer. The assay is run in a 384-well format using black Corning plates, cat#3573.
row,Structure (SMILES),IC50
1,Fc1cccc(CNc2cccc(-c3cc(NC4CC=CCC4)ncc3Cl)n2)c1 (stereo not shown) [Compound 185],110 nM
2,OC1CCN(c2cccc(-c3cc(N[C@H]4CC[C@H](O)CC4)ncc3Cl)n2)CC1 [Compound 130],169 nM
3,O[C@H]1CC[C@H](Nc2cc(-c3cccc(NCc4ccncc4)n3)c(Cl)cn2)CC1 [Compound 122],7.95 nM
4,NC[C@H]1CC[C@@H](Nc2cc(-c3cccc(NCc4cccc(F)c4)n3)c(Cl)cn2)C1 [Compound 234],7.95 nM
5,O[C@H]1CC[C@H](Nc2cc(-c3cccc(NC[C@@H]4CCCO4)n3)c(Cl)cn2)CC1 [Compound 127],139 nM
6,COC[C@@H](C)N[C@H]1CC[C@H](Nc2cc(-c3cccc(NC[C@H]4CCOC(C)(C)C4)n3)c(Cl)cn2)CC1 [Compound 328],1 nM
7,CNC(=O)[C@@H]1CC[C@H](Nc2cc(-c3cccc(NCc4cccc(F)c4)n3)c(Cl)cn2)C1 [Compound 214],41.7 nM
8,Fc1cccc(CNc2cccc(-c3cc(NCC4CCCOC4)ncc3Cl)n2)c1 (stereo not shown) [Compound 176],21 nM
9,COC[C@@H](C)N[C@H]1CC[C@H](Nc2cc(-c3cccc(NCC4CCOCC4)n3)c(Cl)cn2)CC1 [Compound 287],3 nM
10,O=C(O)CNc1cc(-c2cccc(NCc3cccc(F)c3)n2)c(Cl)cn1 [Compound 196],812 nM
11,O=C(O)[C@H]1CC[C@@H](Nc2cc(-c3cccc(NCc4cccc(F)c4)n3)c(Cl)cn2)C1 [Compound 202],18.8 nM
12,Fc1cccc(CNc2cccc(-c3cc(NCCc4ccncc4)ncc3Cl)n2)c1 [Compound 177],13 nM
13,"FC(F)(F)OCCN[C@H]1CC[C@H](Nc2cc(-c3nc(NCC4CCOCC4)ccc3Cl)c(Cl)cn2)CC1 [Compound 302, 3,5′-dichloro-N6-((tetrahydro-2H-pyran-4-yl)methyl)-N2′-(trans-4-(2-(trifluoromethoxy)ethylamino)cyclohexyl)-2,4′-bipyridine-2′,6-diamine]",1 nM
14,"COC[C@@H](C)N[C@H]1CC[C@H](Nc2cc(-c3nc(NCC4CCOCC4)ccc3Cl)c(Cl)cn2)CC1 [Compound 291, 5′-chloro-N2′-(trans-4-((R)-1-methoxypropan-2-yl-amino)cyclohexyl)-N6-((tetrahydro-2H-pyran-4-yl)methyl)-2,4′-bipyridine-2′,6-diamine]",1 nM
15,OC[C@H]1CC[C@@H](Nc2cc(-c3cccc(NCc4cccc(F)c4)n3)c(Cl)cn2)C1 [Compound 220],7.95 nM
16,OC[C@@H]1CC[C@H](Nc2cc(-c3cccc(NCc4cccc(F)c4)n3)c(Cl)cn2)C1 [Compound 219],7.95 nM
17,Fc1cccc(CNc2cccc(-c3cc(N[C@H]4CC[C@H](CN5CCCCC5)CC4)ncc3Cl)n2)c1 [Compound 110],25.2 nM
18,"CC1(CNc2nc(-c3cc(N[C@H]4CC[C@H](NC5CCS(=O)(=O)C5)CC4)ncc3Cl)ccc2F)CCOCC1 (stereo partly drawn) [Compound 332, 5′-chloro-5-fluoro-N6-((4-methyltetrahydro-2H-pyran-4-yl)methyl)-N2′-(trans-4-((1,1-dioxo-hexahydro-1-thiopyran-4-yl)-3-ylamino)cyclohexyl)-2,4′-bipyridine-2′,6-diamine]",1 nM
19,NC[C@H]1CC[C@H](Nc2cc(-c3cccc(NCc4ccc(F)c(F)c4)n3)c(Cl)cn2)CC1 [Compound 63],7.95 nM
20,"N#CC1(CNc2cccc(-c3cc(N[C@H]4CC[C@H](NC5CCOCC5)CC4)ncc3Cl)n2)CCOCC1 [Compound 363, 4-((5′-chloro-2′-((1r,4r)-4-(tetrahydro-2H-pyran-4-ylamino)cyclohexylamino)-2,4′-bipyridin-6-ylamino)methyl)tetrahydro-2H-pyran-4-carbonitrile]",0.43 nM
21,NC[C@@H]1CC[C@H](Nc2cc(-c3cccc(NCc4cccc(F)c4)n3)c(Cl)cn2)C1 [Compound 237],7.95 nM
22,COC[C@@H](C)N[C@H]1CC[C@H](Nc2cc(-c3cccc(NC[C@@H]4CCOC(C)(C)C4)n3)c(Cl)cn2)CC1 [Compound 330],2 nM
23,O=C(N[C@H]1CC[C@H](Nc2cc(-c3cccc(NC[C@@H]4CCCNC4)n3)c(Cl)cn2)CC1)OCc1ccccc1 [Compound 207],114 nM

row,Structure (SMILES),IC50
1,"CNC[C@H]1CC[C@@H](Nc2cc(-c3cccc(NCc4cccc(F)c4)n3)c(Cl)cn2)C1 [Compound 235, 5′-chloro-N6-(3-fluorobenzyl)-N2′-((1R,3 S)-3-((methylamino)methyl)cyclopentyl)-2,4′-bipyridine-2′,6-diamine]",7.95 nM
2,"COCCN[C@H]1CC[C@H](Nc2cc(-c3cccc(NCC4(F)CCOCC4)n3)c(Cl)cn2)CC1 [Compound 364, 5′-chloro-N6-((4-fluorotetrahydro-2H-pyran-4-yl)methyl)-N2′-((1r,4r)-4-(2-methoxyethylamino)cyclohexyl)-2,4′-bipyridine-2′,6-diamine]",0.63 nM
3,"COCCN[C@H]1CC[C@H](Nc2cc(-c3nc(NCC4CCOCC4)ccc3F)c(Cl)cn2)CC1 [Compound 283, 5′-chloro-3-fluoro-N2′-(trans-4-(2-methoxyethylamino)cyclohexyl)-N6-((tetrahydro-2H-pyran-4-yl)methyl)-2,4′-bipyridine-2′,6-diamine]",1 nM
4,O[C@H]1CC[C@H](Nc2cc(-c3nc(NCC4CCOCC4)ccc3Cl)c(Cl)cn2)CC1 [Compound 296],277 nM
5,CNC(=O)[C@H]1CC[C@@H](Nc2cc(-c3cccc(NCc4cccc(F)c4)n3)c(Cl)cn2)C1 [Compound 204],7.94 nM
6,NCC1CCN(c2cccc(-c3cc(N[C@H]4CC[C@H](O)CC4)ncc3Cl)n2)CC1 [Compound 136],204 nM
7,"N#CC1(CNc2cccc(-c3cc(N[C@H]4CC[C@H](NCCOC(F)(F)F)CC4)ncc3Cl)n2)CCOCC1 [Compound 362, 4-((5′-chloro-2′-((1r,4r)-4-(2-(trifluoromethoxy)ethylamino)cyclohexylamino)-2,4′-bipyridin-6-ylamino)methyl)tetrahydro-2H-pyran-4-carbonitrile]",0.36 nM
8,NC[C@H]1CC[C@H](Nc2cc(-c3cccc(NCc4cc(F)cc(F)c4)n3)c(Cl)cn2)CC1 [Compound 65],7.95 nM
9,O=C(N[C@H]1CC[C@H](Nc2cc(-c3cccc(NC[C@H]4CCCNC4)n3)c(Cl)cn2)CC1)OCc1ccccc1 [Compound 206],134 nM
10,CCCN[C@H]1CC[C@H](Nc2cc(-c3ccc(F)c(NCC4(C#N)CCOCC4)n3)c(Cl)cn2)CC1 [Compound 342],0.17 nM
11,COC[C@@H](C)N[C@H]1CC[C@H](Nc2cc(-c3cccc(NCC4CCOC(C)(C)C4)n3)c(Cl)cn2)CC1 (stereo partly shown) [Compound 329],1 nM
12,O[C@H]1CC[C@H](Nc2cc(-c3cccc(NC[C@H]4CCCO4)n3)c(Cl)cn2)CC1 [Compound 125],279 nM
13,O[C@H]1CC[C@@H](Nc2cc(-c3nc(NCC4CCOCC4)ccc3Cl)c(Cl)cn2)CC1 [Compound 267],270 nM
14,O=C(O)[C@@H]1CC[C@H](Nc2cc(-c3cccc(NCc4cccc(F)c4)n3)c(Cl)cn2)C1 [Compound 201],634 nM
15,"N#Cc1cc(NCc2cccc(F)c2)nc(-c2cc(N[C@H]3CC[C@H](N)CC3)ncc2Cl)c1 [Compound 15, 2′-(trans-4-aminocyclohexylamino)-5′-chloro-6-(3-fluorobenzylamino)-2,4′-bipyridine-4-carbonitrile]",7.95 nM
16,COCCN[C@H]1CC[C@H](Nc2cc(-c3cccc(NCC4(CO)CCOCC4)n3)c(Cl)cn2)CC1 [Compound 350],1 nM
17,CC(C)(C)OC(=O)CNc1cc(-c2cccc(NCc3cccc(F)c3)n2)c(Cl)cn1 [Compound 187],2740 nM
18,N[C@H]1CC[C@H](Nc2cc(-c3cncc(NCc4cccc(F)c4)n3)ccn2)CC1 [Compound 30],7.95 nM
19,"N[C@H]1CC[C@H](Nc2cc(-c3cnc(C4CC4)c(NCC4CCOCC4)n3)c(Cl)cn2)CC1 [Compound 240, trans-N^1-(5-chloro-4-(5-cyclopropyl-6-((tetrahydro-2H-pyran-4-yl)methyl)aminopyrazin-2-yl)pyridin-2-yl)cyclohexane-1,4-diamine]",21 nM
20,"N[C@H]1CC[C@H](Nc2cc(-c3ccc(F)c(NCc4cccc(F)c4)n3)c(Cl)cn2)CC1 [Compound 12, N2′-(trans-4-aminocyclohexyl)-5′-chloro-5-fluoro-N^6-(3-fluorobenzyl)-2,4′-bipyridine-2′,6-diamine]",7.95 nM
21,CCNC[C@H]1CC[C@@H](Nc2cc(-c3cccc(NCc4cccc(F)c4)n3)c(Cl)cn2)C1 [Compound 236],7.95 nM
22,"Fc1cccc(CNc2cccc(-c3cc(N[C@H]4CC[C@H](Nc5cc(Cl)ncn5)CC4)ncc3Cl)n2)c1 [Compound 156, 5′-chloro-N2′-(trans-4-(6-chloropyrimidin-4-yl-amino)cyclohexyl)-N6-(3-fluorobenzyl)-2,4′-bipyridine-2′,6-diamine]",45 nM
23,"N[C@H]1CC[C@H](Nc2cc(-c3nc(NCC4CCOCC4)ccc3Cl)ccn2)CC1 [Compound 265, N2′-(trans-4-aminocyclohexyl)-3-chloro-N6-((tetrahydro-2H-pyran-4-yl)methyl)-2,4′-bipyridine-2′,6-diamine]",32.6 nM
